Assay results as given in US11291637B2, “Methods for treating or preventing organophosphate poisoning” (dated 2022).

Key:
soman-induced seizures [1] = details: isoflurane anesthesia maintained for 1.5 hours; cited from earlier work
sarin poisoning = details: 2% isoflurane in 100% oxygen continuously for 6 hours; cited from earlier work
paraoxon intoxication [2] = test: Survival after lethal dose of paraoxon
[3] = tested on: paraoxon-induced seizures; test: Seizure severity (modified Racine scale) after paraoxon intoxication
[4] = tested on: paraoxon-induced neuronal degeneration; test: Fluoro-Jade (FJC/FJB) staining for acute neurodegeneration 24 hours after paraoxon
paraoxon intoxication [5] = test: Behavioral observation (sedation, appearance) after brief isoflurane in paraoxon-intoxicated rats
OP-CTA poisoning = details: if treatment is delayed; cited from earlier work
soman-induced seizures [6] = details: sub-anesthetic doses, 30 minutes after soman challenge; cited from earlier work
[7] = 1% for 4 minutes, 30 minutes after paraoxon
[8] = 4 minute isoflurane (2% for 3 minute and 3.5% or higher for 1 minute) 20 or 30 minutes after paraoxon
[9] = brief isoflurane initiated at 120 minutes after paraoxon
[10] = 4%, 4.5% or 5% isoflurane for 5 minutes, 1 hour after paraoxon
[11] = brief isoflurane 30 minutes after paraoxon

## FC(F)OC(Cl)C(F)(F)F (stereo not shown)
soman-induced seizures [1]
  edema in selected brain areas: attenuated edema
  soman-induced seizures: interrupted soman-induced seizures
Sarin poisoning
  protection against sarin poisoning: profound protection
Paraoxon intoxication [2]; brief isoflurane (2% 3 min, 5% 1 min) in 100% oxygen 10 to 120 minutes after paraoxon, n=6/group
  survival rate: 100%
Paraoxon intoxication [2]; brief isoflurane between 10 and 120 minutes after paraoxon
  survival: improved survival at all time points
[3]; [7]
  prevention of seizures: failed to prevent seizures
[3]; 2% 3 min then 5% 1 min, time after exposure to paraoxon
  post-exposure time of peak effectiveness on seizure severity: about 30 minutes
[3]; 2% isoflurane 3 min then 5% 1 min in 100% oxygen, about 10 minutes to about 2 hours after paraoxon 4 mg/kg
  seizure severity: decreased seizure severity significantly
[3]; 4%, 4.5% or 5% isoflurane in 100% oxygen for 5 minutes, 1 hour after paraoxon
  seizure activity after brief isoflurane: did not exhibit any signs of seizure activity
[3]; [8]
  seizure activity: prevented further seizure activity
[3]; 30 minutes after paraoxon, 2% 3 min then 3.5% or 5% for the final minute
  seizures induced by paraoxon: stopped seizures
[3]; about 2% isoflurane for 3 minutes followed by 1 minute in the ~3.5% to 5% range
  effectiveness in dose-response studies: effective
[3]; brief administration 30 minutes after paraoxon
  minimum effective concentration of isoflurane: 3.5%
[3]; brief isoflurane at 45 minutes or later post-paraoxon
  seizure activity: continued moderate to severe seizure activity
[3]; brief isoflurane initiated 45 or 60 minutes after paraoxon
  time until significant reduction in seizure severity below stage 2: 7 h
[3]; brief isoflurane initiated at 20 or 30 minutes after paraoxon
  time to complete suppression of seizures: ≤ 10 min
[3]; [9]
  seizure severity 1 hour after treatment (3 hour time point): statistically significant reduction in seizure severity
  seizure severity (Racine stage) at all time points observed: ≥ 3 stage
[4]; [7]
  prevention of neurodegeneration: failed to prevent
[4]; 4% isoflurane for 5 minutes one hour after paraoxon
  neurodegeneration (FJB staining) at 24 hours: significantly reduced neurodegeneration
[4]; [10]
  degenerating neurons 24 hours after paraoxon: significantly reduced
[4]; 4.5% isoflurane for 5 minutes one hour after paraoxon
  neurodegeneration (FJB staining) at 24 hours: minimal neurodegeneration
[4]; [8]
  neurodegeneration 24 hours later: no neurodegeneration
[4]; 30 minutes after paraoxon, 1% (4 minutes) or 2% (4 minutes)
  neurodegeneration 24 hours after intoxication: extensive neurodegeneration
[4]; 30 minutes after paraoxon, 1% isoflurane for 4 minutes
  FJC stained neurons: Numerous FJC stained neurons
[4]; 30 minutes after paraoxon, 3.5% or 5% isoflurane for the last minute
  neurodegeneration 24 hours after intoxication: no neurodegeneration
[4]; brief isoflurane 45 or 60 minutes after paraoxon, each group
  rats with neurodegeneration: 5 out of 6
[4]; brief isoflurane 10 minutes after paraoxon, 24 hours
  rats with acute neurodegeneration (positive FJC staining): 2 out of 6
[4]; [11]
  FJC staining, medial cortical amygdala: Staining was not seen
  neuronal loss (FJC), hippocampus and dorsolateral thalamus: neuronal loss was prevented
[4]; brief isoflurane 30 minutes after paraoxon, 24 hours
  neuronal loss / neurodegeneration (FJC): no neuronal loss
[4]; brief isoflurane 30 minutes after paraoxon, 24 hours, listed as Isoflurane
  neuronal loss / neurodegeneration (FJC): prevented the neurodegeneration
[4]; brief isoflurane at 20 and 30 minutes after paraoxon, 24 hours, n=6 per group
  acute neurodegeneration (FJC staining): no acute neurodegeneration
[4]; brief isoflurane at 120 minutes after paraoxon, n=6
  animals showing neurodegeneration 24 hours after paraoxon: all animals
[4]; brief isoflurane at the 10, 45 and 60 minute post-exposure time points
  neuroprotection: Only partial neuroprotection
[4]; isoflurane treated groups, time course about 10 minutes to about 2 hours
  number of degenerating neurons (Fluoro-Jade-C) at 24 h: decreased significantly
Paraoxon intoxication [5]; [10]
  appearance after 24 hours: appeared normal
Paraoxon intoxication [5]; [8]
  behavior 24 hours later: normal behavior

## CN1C(=O)CN=C(c2ccccc2)c2cc(Cl)ccc21
OP-CTA poisoning
  effectiveness of anticonvulsant treatment: loses effectiveness

## CNC1(c2ccccc2Cl)CCCCC1=O (stereo not shown)
soman-induced seizures [6]
  ongoing seizures: stop ongoing seizures
